# Literature values in patent US20260139007A1, “EPHA4 ANTAGONISTS AND USES THEREOF” (SANFORD BURNHAM PREBYS MEDICAL DISCOVERY INSTITUTE, priority 2023, published 2026).
# The chains behind the UniProt entries cited, without tags or fusion partners. Residues count along the entry.
# UniProt P54764, 20-986 limits assumed: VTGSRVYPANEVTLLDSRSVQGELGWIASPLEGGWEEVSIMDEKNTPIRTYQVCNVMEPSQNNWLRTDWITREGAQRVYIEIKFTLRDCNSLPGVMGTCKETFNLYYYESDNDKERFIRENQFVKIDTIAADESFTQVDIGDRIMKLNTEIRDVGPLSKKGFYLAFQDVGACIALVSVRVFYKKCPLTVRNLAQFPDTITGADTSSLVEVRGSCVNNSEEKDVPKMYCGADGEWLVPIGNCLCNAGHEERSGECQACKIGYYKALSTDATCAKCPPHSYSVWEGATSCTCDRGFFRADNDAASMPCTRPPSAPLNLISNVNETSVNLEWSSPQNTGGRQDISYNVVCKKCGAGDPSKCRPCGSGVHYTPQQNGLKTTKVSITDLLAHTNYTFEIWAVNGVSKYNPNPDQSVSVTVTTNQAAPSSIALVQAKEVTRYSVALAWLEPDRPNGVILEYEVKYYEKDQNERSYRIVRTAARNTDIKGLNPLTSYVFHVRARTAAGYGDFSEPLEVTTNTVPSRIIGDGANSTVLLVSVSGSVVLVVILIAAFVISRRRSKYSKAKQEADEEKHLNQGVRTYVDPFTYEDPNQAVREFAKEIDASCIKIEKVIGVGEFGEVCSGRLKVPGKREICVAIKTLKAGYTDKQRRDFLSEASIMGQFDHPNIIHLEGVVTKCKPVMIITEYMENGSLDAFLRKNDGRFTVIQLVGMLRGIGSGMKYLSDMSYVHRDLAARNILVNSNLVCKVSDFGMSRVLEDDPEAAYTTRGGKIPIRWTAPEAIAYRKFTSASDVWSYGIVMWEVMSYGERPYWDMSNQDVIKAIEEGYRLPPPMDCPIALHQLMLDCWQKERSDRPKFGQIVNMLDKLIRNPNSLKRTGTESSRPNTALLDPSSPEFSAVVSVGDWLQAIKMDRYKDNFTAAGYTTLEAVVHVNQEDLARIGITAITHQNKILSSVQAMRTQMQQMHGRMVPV
# Tests used:
# EphA4 = EphA4 (Homo sapiens, UniProt P54764)
# [1] = system: rat model of spinal cord injury
# Aβ oligomers = settings: in vitro and in vivo mouse models
smiles,measurement,setting,value
CC(C)C[C@H](NC(=O)[C@H](CO)NC(=O)[C@H](CO)NC(=O)[C@H](CC(C)C)NC(=O)[C@@H](NC(=O)[C@@H]1CCCN1C(=O)[C@H](Cc1c[nH]c2ccccc12)NC(=O)[C@H](Cc1ccc(O)cc1)NC(=O)[C@@H]1CCCN1C(=O)[C@H](CC(C)C)NC(=O)[C@H](Cc1ccc(O)cc1)NC(=O)[C@@H](N)CCCCN)C(C)C)C(=O)O,effect on ALS pathogenesis,rat SOD1 G93A ALS model,significantly dampened ALS pathogenesis
same,Kd,EphA4,800 to 1000 nM
same,axon sprouting and limb function,[1],promote axon sprouting and recovery of limb function
same,effect on toxic effects of Aβ oligomers,Aβ oligomers,can inhibit the toxic effects of Aβ oligomers
